Measurements taken from patent US11845808B2, “Peptide inhibitors of interleukin-23 receptor and their use to treat inflammatory diseases” (Janssen Biotech, Inc., priority 2020, dated 2023).

By UniProt entry, the sequences of proteins in these tests, tags left out. Residues count along the entry.
UniProt Q5VWK5, 24-629 limits assumed: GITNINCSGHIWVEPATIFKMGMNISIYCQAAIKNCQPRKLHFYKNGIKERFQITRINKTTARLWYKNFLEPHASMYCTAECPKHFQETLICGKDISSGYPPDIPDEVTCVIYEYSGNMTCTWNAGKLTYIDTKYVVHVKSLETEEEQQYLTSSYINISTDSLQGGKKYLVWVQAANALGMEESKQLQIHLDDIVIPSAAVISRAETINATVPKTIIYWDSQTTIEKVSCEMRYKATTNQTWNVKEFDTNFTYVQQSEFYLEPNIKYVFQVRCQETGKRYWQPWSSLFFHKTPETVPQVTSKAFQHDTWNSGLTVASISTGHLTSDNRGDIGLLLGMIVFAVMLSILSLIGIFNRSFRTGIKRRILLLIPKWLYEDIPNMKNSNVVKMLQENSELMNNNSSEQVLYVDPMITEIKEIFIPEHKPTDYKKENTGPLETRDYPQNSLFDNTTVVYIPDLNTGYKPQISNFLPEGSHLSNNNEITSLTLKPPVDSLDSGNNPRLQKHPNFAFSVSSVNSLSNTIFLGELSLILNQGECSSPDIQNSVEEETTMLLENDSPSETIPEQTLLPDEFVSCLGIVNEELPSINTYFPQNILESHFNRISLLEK

system: not listed separately; experiment: Stability in cynomolgus monkey fecal homogenate; format: in vitro ADME; settings: 20% cynomolgus monkey fecal homogenate, 37° C., 20 μM

Substance | t½: Monkey Feces anaerobic [h]
Ac-[Pen]-N-T-[W(7-Ph)]-[Lys(Ac)]-[Pen]-Phe[4-(2-aminoethoxy)]-[3Quin]-[a-MeLys]-[Lys(Ac)]-N-[(D)Leu]-[Sarc]-NH2 [Peptide 14] | >24.0
Ac-[Pen]-S-T-[W(7-Ph)]-[Lys(Ac)]-[Pen]-Phe[4-(2-aminoethoxy)]-[2-Nal]-[THP]-E-S-H-[Sarc]-NH2 [Peptide 61] | 15.7

system: not listed separately; experiment: Stability in rat plasma; format: in vitro ADME; settings: SD rat plasma, 37° C., 20 μM

Substance | t½: Rat Plasma EDTA [h]
Ac-[Pen]-N-T-[W(7-Ph)]-[Lys(Ac)]-[Pen]-Phe[4-(2-aminoethoxy)]-[3Quin]-[a-MeLys]-[Lys(Ac)]-N-[(D)Leu]-[Sarc]-NH2 [Peptide 14] | >24.0
Ac-[Pen]-S-T-[W(7-Ph)]-[Lys(Ac)]-[Pen]-Phe[4-(2-aminoethoxy)]-[2-Nal]-[THP]-E-S-H-[Sarc]-NH2 [Peptide 61] | >24.0

system: not listed separately; experiment: Stability in human fecal homogenate; format: in vitro ADME; settings: 20% human fecal homogenate, 37° C., 20 μM

Substance | t½: Human Feces anaerobic [h]
Ac-[Pen]-N-T-[W(7-Ph)]-[Lys(Ac)]-[Pen]-Phe[4-(2-aminoethoxy)]-[3Quin]-[a-MeLys]-[Lys(Ac)]-N-[(D)Leu]-[Sarc]-NH2 [Peptide 14] | >24.0
Ac-[Pen]-S-T-[W(7-Ph)]-[Lys(Ac)]-[Pen]-Phe[4-(2-aminoethoxy)]-[2-Nal]-[THP]-E-S-H-[Sarc]-NH2 [Peptide 61] | 19.5

system: not listed separately; experiment: Stability in simulated intestinal fluid (SIF); format: in vitro ADME; settings: 100 fold dilution of standard SIF concentration, 37° C., 20 μM
Outline: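 Peptides at 20 μM final were incubated at 37 °C in SIF (potassium phosphate with pancreatin, pH 6.8), and reactions were quenched with acetonitrile/1% formic acid at time points from 0 min to 24 h. Percent remaining relative to time 0 was determined by LC-MS/MS against an internal standard, and half-life came from a first-order decay fit.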

Substance | SIF t½ [h]
Ac-[Pen]-N-T-[W(7-Ph)]-[Lys(Ac)]-[Pen]-Phe[4-(2-aminoethoxy)]-[3Quin]-[a-MeLys]-[Lys(Ac)]-N-[(D)Leu]-[Sarc]-NH2 [Peptide 14] | >24.0
Ac-[Pen]-S-T-[W(7-Ph)]-[Lys(Ac)]-[Pen]-Phe[4-(2-aminoethoxy)]-[2-Nal]-[THP]-E-S-H-[Sarc]-NH2 [Peptide 61] | >24.0

target: IL-23 induced IFNγ in natural killer (NK) cells (Homo sapiens, UniProt Q5VWK5); experiment: NK cell based assay (IL-23/IL-18 induced IFNγ); settings: IL-23 at EC50 to EC75 and IL-18 10 ng/mL, IFNγ in supernatant after 20 to 24 hours
Excerpt: Example 3: NK Cell Based Assay

Substance | IC50 [nM]
Ac-[Pen]-N-T-[W(7-Ph)]-[Lys(Ac)]-[Pen]-Phe[4-(2-aminoethoxy)]-[3Quin]-[a-MeLys]-[Lys(Ac)]-N-[(D)Leu]-[Sarc]-NH2 [Peptide 14] | 2.8
Ac-[Pen]-S-T-[W(7-Ph)]-[Lys(Ac)]-[Pen]-Phe[4-(2-aminoethoxy)]-[2-Nal]-[THP]-E-S-H-[Sarc]-NH2 [Peptide 61] | 2.23

target: IL-23 stimulated phosphorylated STAT3 in PBMCs (Homo sapiens, UniProt Q5VWK5); experiment: PBMC pSTAT3 assay; format: cell-based; settings: PBMCs from healthy donors, IL-23 5 ng/mL, 30 minutes

Substance | IC50 [nM]
Ac-[(D)Arg]-[Abu]-Q-T-W-Q-[Cys]-Phe[4-(2-aminoethoxy)]-[2-Nal]-[THP]-E-N-N-[(D)NMeTyr]-NH2 [Peptide 8] | 1
Ac-[(D)Arg]-[Cys]-N-T-[W(7-Me)]-[Lys(Ac)]-[aMeCys]-Phe[4-(2-aminoethoxy)]-[2-Nal]-[Acvc]-E-N-H-[Sarc]-NH2 [Peptide 233] | 4.3
Ac-[(D)Arg]-[Pen]-N-T-[W(7-Me)]-[Lys(Ac)]-[Pen]-Phe[4-(2-aminoethoxy)]-[2-Nal]-[Acvc]-E-N-[3Pal]-[Sarc]-NH2 [Peptide 235] | 0.01
Ac-[(D)Arg]-[Pen]-N-T-[W(7-Me)]-[Lys(Ac)]-[Pen]-Phe[4-(2-aminoethoxy)]-[2-Nal]-[Acvc]-E-N-[(D)Arg]-[Sarc]-NH2 [Peptide 226] | 1.7
Ac-[(D)Arg]-[Pen]-N-T-[W(7-Me)]-[Lys(Ac)]-[Pen]-Phe[4-(2-aminoethoxy)]-[2-Nal]-[THP]-E-N-H-[(D)Tyr]-NH2 [Peptide 206] | 0.78
Ac-[(D)Arg]-[Pen]-N-T-[W(7-Me)]-[Lys(Ac)]-[Pen]-Phe[4-(2-aminoethoxy)]-[2-Nal]-[THP]-E-N-N-[(D)NMeTyr]-NH2 [Peptide 88] | > 2000
Ac-[(D)Arg]-[Pen]-N-T-[W(7-Me)]-[Lys(Ac)]-[Pen]-Phe[4-(2-aminoethoxy)]-[2-Nal]-[THP]-E-N-[3Pal]-[Sarc]-NH2 [Peptide 247] | 0.0043
Ac-[(D)Arg]-[Pen]-N-T-[W(7-Me)]-[Lys(Ac)]-[Pen]-Phe[4-(2-aminoethoxy)]-[2-Nal]-[THP]-E-N-[3Pal]-[Sarc]-NH2 [Peptide 266] | 0.81
Ac-[(D)Arg]-[Pen]-N-T-[W(7-Me)]-[Lys(Ac)]-[Pen]-Phe[4-(2-aminoethoxy)]-[2-Nal]-[THP]-E-N-[(1-Me)His]-NH2 [Peptide 166] | 8.9
Ac-[(D)Arg]-[Pen]-N-T-[W(7-Me)]-[Lys(Ac)]-[Pen]-Phe[4-(2-aminoethoxy)]-[2-Nal]-[THP]-E-N-[(5Pyal)]-NH2 [Peptide 164] | 0.011
Ac-[(D)Arg]-[Pen]-N-T-[W(7-Me)]-[Lys(Ac)]-[Pen]-Phe[4-(2-aminoethoxy)]-[2-Nal]-[THP]-E-N-[(D)His]-NH2 [Peptide 92] | 2.8
Ac-[(D)Arg]-[Pen]-N-T-[W(7-Me)]-[Lys(Ac)]-[Pen]-Phe[4-(2-aminoethoxy)]-[2-Nal]-[THP]-E-N-[THP]-[(D)Pro]-NH2 [Peptide 223] | 13
Ac-[(D)Arg]-[Pen]-N-T-[W(7-Me)]-[Lys(Ac)]-[Pen]-Phe[4-(2-aminoethoxy)]-[2-Nal]-[a-MeLys]-E-N-H-[(D)NMeTyr]-NH2 [Peptide 83] | 1.7
Ac-[(D)Arg]-[Pen]-Q-T-W-Q-[Pen]-Phe[4-(2-aminoethoxy)]-[2-Nal]-[THP]-E-N-N-[(D)NMeTyr]-NH2 [Peptide 9] | 24
Ac-[(D)Arg]-[Pen]-Q-T-W-Q-[Pen]-Phe[4-(2-aminoethoxy)]-[2-Nal]-[THP]-[aMeGlu]-N-F-[(D)NMeTyr]-NH2 [Peptide 10] | 4.3
Ac-[Pen]-N -T-[W(7-Me]-[Lys(Ac)]-[Pen]-Phe[4-(2-aminoethoxy)]-[2-Nal]-[a-Me-Lys]-[Lys(Ac)]-N-[3Pal]-[(D)NMeTyr]-NH2 [Peptide 168] | 0.019
Ac-[Pen]-N-T-[W(7-Me)]-[(D)Tyr]-[Pen]-Phe[4-(2-aminoethoxy)]-[2-Nal]-[a-MeLys]-[Lys(Ac)]-N-[(D)Lys]-[(D)NMeTyr]-NH2 [Peptide 207] | 3.3
Ac-[Pen]-N-T-[W(7-Me)]-[Cit]-[Pen]-Phe[4-(2-aminoethoxy)]-[2-Nal]-[aMeLeu]-[Lys(Ac)]-N-[(D)His]-NH2 [Peptide 85] | 3
Ac-[Pen]-N-T-[W(7-Me)]-[Cit]-[Pen]-Phe[4-(2-aminoethoxy)]-[2-Nal]-[aMeLeu]-[Lys(Ac)]-N-[(D)Lys]-[(D)NMeTyr]-NH2 [Peptide 216] | 1.8
Ac-[Pen]-N-T-[W(7-Me)]-[Lys(Ac)]-[Pen]-Phe[4-(2-aminoethoxy)]-[2-Nal]-[Acvc]-E-N-Phe[4-NH2]-[Sarc]-NH2 [Peptide 228] | 17
Ac-[Pen]-N-T-[W(7-Me)]-[Lys(Ac)]-[Pen]-Phe[4-(2-aminoethoxy)]-[2-Nal]-[a-Me-Lys]-[Lys(Ac)]-N-[(5Pyal)]-NH2 [Peptide 165] | 0.0053

Substance | IC50 [nM]
Ac-[Pen]-N-T-[W(7-Me)]-[Lys(Ac)]-[Pen]-Phe[4-(2-aminoethoxy)]-[2-Nal]-[a-MeLys]-[Lys(Ac)]-N-F-[(D)NMeTyr]-NH2 [Peptide 58] | 19
Ac-[Pen]-N-T-[W(7-Me)]-[Lys(Ac)]-[Pen]-Phe[4-(2-aminoethoxy)]-[2-Nal]-[a-MeLys]-[Lys(Ac)]-N-H-[(D)NMeTyr]-NH2 [Peptide 82] | 0.98
Ac-[Pen]-N-T-[W(7-Me)]-[Lys(Ac)]-[Pen]-Phe[4-(2-aminoethoxy)]-[2-Nal]-[a-MeLys]-[Lys(Ac)]-N-N-[(D)NMeTyr]-NH2 [Peptide 89] | 6.9
Ac-[Pen]-N-T-[W(7-Me)]-[Lys(Ac)]-[Pen]-Phe[4-(2-aminoethoxy)]-[2-Nal]-[a-MeLys]-[Lys(Ac)]-N-Phe[4-aminomethyl]-[(D)NMeTyr]-NH2 [Peptide 84] | 13
Ac-[Pen]-N-T-[W(7-Me)]-[Lys(Ac)]-[Pen]-Phe[4-(2-aminoethoxy)]-[2-Nal]-[a-MeLys]-[Lys(Ac)]-N-[3Pal]-[(D)NMeTyr]-NH2 [Peptide 246] | 0.33
Ac-[Pen]-N-T-[W(7-Me)]-[Lys(Ac)]-[Pen]-Phe[4-(2-aminoethoxy)]-[2-Nal]-[a-MeLys]-[Lys(Ac)]-N-[(D)Arg]-[Sarc]-NH2 [Peptide 238] | 8.9
Ac-[Pen]-N-T-[W(7-Me)]-[Lys(Ac)]-[Pen]-Phe[4-(2-aminoethoxy)]-[2-Nal]-[a-MeLys]-[Lys(Ac)]-N-[(D)His]-NH2 [Peptide 86] | 7.2
Ac-[Pen]-N-T-[W(7-Me)]-[Lys(Ac)]-[Pen]-Phe[4-(2-aminoethoxy)]-[2-Nal]-[a-MeLys]-[Lys(Ac)]-N-[(D)Orn]-[(D)NMeTyr]-NH2 [Peptide 203] | 2.9
Ac-[Pen]-N-T-[W(7-Me)]-[Lys(Ac)]-[Pen]-Phe[4-(2-aminoethoxy)]-[2-Nal]-[a-MeLys]-[Lys(Ac)]-N-[(D)Ser]-[(D)NMeTyr]-NH2 [Peptide 204] | 6.4
Ac-[Pen]-N-T-[W(7-Me)]-[Lys(Ac)]-[Pen]-Phe[4-(2-aminoethoxy)]-[2-Nal]-[a-MeLys]-[Lys(Ac)]-N-[(D)Thr]-[(D)NMeTyr]-NH2 [Peptide 91] | 14
Ac-[Pen]-N-T-[W(7-Me)]-[Lys(Ac)]-[Pen]-Phe[4-(2-aminoethoxy)]-[2-Nal]-[a-MeLys]-[Lys(Ac)]-N-[(D)Tyr]-[(D)NMeTyr]-NH2 [Peptide 215] | 7.3
Ac-[Pen]-N-T-[W(7-Me)]-[Lys(Ac)]-[Pen]-Phe[4-(2-aminoethoxy)]-[2-Nal]-[a-MeLys]-[Lys(Ac)]-N-[(D)Tyr]-[Sarc]-NH2 [Peptide 240] | 40
Ac-[Pen]-N-T-[W(7-Me)]-[Lys(Ac)]-[Pen]-Phe[4-(2-aminoethoxy)]-[2-Nal]-[a-MeLys]-[Lys(Ac)]-N-[(D)Tyr]-[Sarc]-NH2 [Peptide 241] | 13
Ac-[Pen]-N-T-[W(7-Me)]-[Lys(Ac)]-[Pen]-Phe[4-(2-aminoethoxy)]-[2-Nal]-[a-MeLys]-[Lys(Ac)]-N-[(D)Val]-[(D)NMeTyr]-NH2 [Peptide 90] | 7.1
Ac-[Pen]-N-T-[W(7-Me)]-[Lys(Ac)]-[Pen]-Phe[4-(2-aminoethoxy)]-[2-Nal]-[a-MeLys]-[Lys(Ac)]-N-[bAla]-[(D)NMeTyr]-NH2 [Peptide 218] | 15
Ac-[Pen]-N-T-[W(7-Me)]-[Lys(Ac)]-[Pen]-Phe[4-(2-aminoethoxy)]-[2-Nal]-[a-MeLys]-[Lys(Ac)]-N-[bAla]-[(D)NMeTyr]-NH2 [Peptide 219] | 14
Ac-[Pen]-N-T-[W(7-Me)]-[Lys(Ac)]-[Pen]-Phe[4-(2-aminoethoxy)]-[2-Nal]-[a-MeLys]-[Lys(Ac)]-N-[bAla]-[(D)NMeTyr]-NH2 [Peptide 220] | 8.4
Ac-[Pen]-N-T-[W(7-Me)]-[Lys(Ac)]-[Pen]-Phe[4-(2-aminoethoxy)]-[2-Nal]-[a-MeLys]-[Lys(Ac)]-N-[bAla]-[Sarc]-NH2 [Peptide 236] | 17
Ac-[Pen]-N-T-[W(7-Me)]-[Lys(Ac)]-[Pen]-Phe[4-(2-aminoethoxy)]-[2-Nal]-[aMeLys]-[Lys(Ac)]-N-[(1-Me)His]-NH2 [Peptide 167] | 14
Ac-[Pen]-N-T-[W(7-Me)]-[Phe(4-CONH2)]-[Pen]-Phe[4-(2-aminoethoxy)]-[2-Nal]-[a-MeLys]-[Lys(Ac)]-N-[(D)Lys]-[(D)NMeTyr]-NH2 [Peptide 210] | 6.8
